# AlphaSeq binding of Ab-14 light chain variants to a spike HR2 peptide

Source: Engelhart et al. 2022 (doi:10.1038/s41597-022-01779-4), MIT Lincoln Laboratory and A-Alpha Bio; data file from the FLAb repository.

Target: peptide PDVDLGDISGINAS, taken from heptad repeat 2 (HR2) of SARS-CoV-2 spike.

Ab-14 is the parent antibody, in scFv form: VH, then three GGGGS repeats, then VL. The heavy chain is unchanged in all variants.
VH: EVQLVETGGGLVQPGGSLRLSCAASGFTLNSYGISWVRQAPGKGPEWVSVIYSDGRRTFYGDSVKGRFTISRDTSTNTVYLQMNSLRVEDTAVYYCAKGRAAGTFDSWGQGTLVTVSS
VL: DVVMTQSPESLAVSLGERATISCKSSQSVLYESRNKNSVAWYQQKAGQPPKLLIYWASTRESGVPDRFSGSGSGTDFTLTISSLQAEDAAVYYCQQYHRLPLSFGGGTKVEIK

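The parent was found by panning a naive human phage display library on the peptide. Variants in AAYL50 differ from the parent at up to three CDR positions; double and triple changes were sampled at random. The assay is AlphaSeq: two haploid yeast populations carry antibody and antigen on their surface. Pairs that bind mate more often; barcode pairs of the diploids are counted by sequencing. The ratio of observed to expected reads was calibrated, replicate by replicate, on BCL2-family standards whose Kd was known from biolayer interferometry. Each pool was mated in three replicate cultures.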

Changes read parent residue, position, new residue, counted from the first residue of the VL shown.
Scale: log10 of Kd in nM, estimated from mating counts; low values are strong binders.
The mean shown is taken over the replicates in which the pair was detected.
"not detected" means that the variant was in the library but no mating with the target was seen in any replicate; the authors take this as a sign of poor binding, and no number exists.
Empty control strains, which show no peptide, gave a signal in 18% of pairings with library AAYL50; the median was 4.19 and 95% of these signals were weaker than 2.99. No background was subtracted.
In this assay the parent's reference entry averaged 0.65; its copy inside this library read 1.68.

changes,"mean, log10 nM",replicates with signal
K24E/N35K,2.25,3 of 3
N35H/S62C/Y97V,5.94,1 of 3
V29E/L30N/L102H,4.10,1 of 3
K24D/Q96D/P101R,2.37,3 of 3
S38V/A57E/T59C,5.84,1 of 3
L30W/R99H/L100M,0.40,3 of 3
K24L/S25H/N37Q,not detected,0 of 3
K24V/V39C/S62R,6.00,1 of 3
V29C/R34Q/P101I,0.78,3 of 3
S33E/Q95R/H98L,not detected,0 of 3
R60H/S62Y/H98M,2.85,3 of 3
R34P/S58C/Q96T,not detected,0 of 3
R34V/S62Y/L102E,not detected,0 of 3
Q95Y/H98Y/P101Y,not detected,0 of 3
V29Y/S58H/P101L,not detected,0 of 3
V39Q/A40D,not detected,0 of 3
S38W/E61L/Q96C,4.14,3 of 3
L30F/P101S,not detected,0 of 3
S28V/A57K/S58C,4.10,1 of 3
Q27P/E32K/T59K,2.63,3 of 3
S25A/E32S/S62L,1.06,3 of 3
E61L/H98N/L100T,1.87,3 of 3
A40N/A57S/P101V,3.73,2 of 3
S28G/K36D/Y97V,2.02,3 of 3
V29T/K36C/N37M,not detected,0 of 3
L30R/S38D/L102Q,not detected,0 of 3
A40K/P101C/S103N,not detected,0 of 3
K24V/S28N/L30Q,not detected,0 of 3
K24M/S26E/W56G,0.03,3 of 3
V29R/Q96Y/Y97V,2.09,3 of 3
K24Q/S26K/L100E,not detected,0 of 3
Q95R/P101W,2.35,3 of 3
Y31V/E32T/P101R,not detected,0 of 3
N35C/A57W,1.72,3 of 3
E32T/A40D/T59D,4.49,1 of 3
L30R/K36T/E61V,0.63,3 of 3
L30M/K36P/Y97E,0.68,3 of 3
Q27M/H98L/P101L,not detected,0 of 3
K24N/N35D/S58K,1.52,3 of 3
N37T/S62C/P101F,5.27,2 of 3
S26M/E61P/L100D,1.93,3 of 3
K36R/N37C/L100D,3.37,3 of 3
T59D/R60C/L102R,4.34,2 of 3
K36H/A40E/H98G,not detected,0 of 3
V39L/R99N/P101C,1.54,3 of 3
V29L/A57D/S62E,0.69,3 of 3
Y31V/R60L,3.93,1 of 3
S26K/A40I,4.33,1 of 3
N37S/Y97T/L100D,4.43,1 of 3
E32P/N35S/V39F,3.85,1 of 3
S25A/Y31V/S103R,1.36,3 of 3
S28M/N35H/T59H,2.01,3 of 3
K24W/E32P,2.78,1 of 3
A40S/A57H/L100T,4.04,2 of 3
S25K/N35Y/L102R,3.08,1 of 3
N37Q/P101H/L102P,5.13,1 of 3
R34A/E61F/P101F,2.56,3 of 3
Y31W/A57D/T59H,2.74,3 of 3
Y31I/N35L/V39H,4.36,2 of 3
V39Y/E61A/S103H,3.32,1 of 3
S28D/E32Y/W56L,0.81,3 of 3
Y31S/Q96F/L100C,1.95,3 of 3
Y31M/S33I/Q95V,4.30,2 of 3

Extract of 8 entries:

| changes | mean, log10 nM | replicates with signal |
|---|---|---|
| Q95R/P101W | 2.35 | 3 of 3 |
| N37S/Y97T/L100D | 4.43 | 1 of 3 |
| Y31V/R60L | 3.93 | 1 of 3 |
| K36H/A40E/H98G | not detected | 0 of 3 |
| A40N/A57S/P101V | 3.73 | 2 of 3 |
| T59D/R60C/L102R | 4.34 | 2 of 3 |
| K24V/V39C/S62R | 6.00 | 1 of 3 |
| S25K/N35Y/L102R | 3.08 | 1 of 3 |